pIC50: −log10 of the molar value. Values belong to the molecule of their own block, whether it stands above or below them.
Tests used:
[1] = target: human TLR8 (Homo sapiens, UniProt Q9NR97); assay: SEAP reporter assay in HEK-Blue TLR8 cells, R848-induced TLR8 signaling; format: cell-based; details: for pIC50: R848 as agonist
[2] = tested on: HEK-Blue TLR8 cells; assay: WST-1 cell proliferation (cytotoxicity) assay; details: 24 h
[3] = tested on: TLR1/2, TLR2/6, TLR3, TLR4, TLR5, TLR7, TLR9; assay: TLR selectivity assay (SEAP) in HEK-Blue cells overexpressing individual TLRs; format: cell-based, human; details: 1 μM; HEK-Blue cells overexpressing each individual TLR
[4] = target: TLR7 (Homo sapiens, UniProt Q9NYK1); assay: SEAP assay in HEK-Blue TLR7 cells activated by R848; format: cell-based; details: concentrations up to 75 μM
[5] = tested on: TLR8-mediated TNF-α and IL-8 mRNA; assay: RT-PCR of TNF-α and IL-8 mRNA in R848 treated HEK-Blue TLR8 cells; details: 1 μM
[6] = tested on: TLR8-mediated TNF-α production in THP-1 cells; assay: R848-induced TNF-α production in differentiated THP-1 monocytes; details: read-out: IC50 of R848-induced TNF-α production
[7] = tested on: TLR8-mediated TNF-α production in PBMC cells; assay: R848-induced TNF-α secretion in PBMCs; details: 1 μg/mL R848; dose-dependent; 4a at 50 μM
[8] = tested on: TNF-α and IL-1β release from synovial cells of OA patients; assay: Spontaneous cytokine release from synovial cells of osteoarthritis patients; details: 24 h
[9] = tested on: synovial cells isolated from osteoarthritis (OA) patients; assay: Cytotoxicity on synovial cells from OA patients; details: up to 100 μM
[10] = tested on: TNF-α production in PBMCs from RA patients; assay: TNF-α level in PBMCs harvested from RA patients; details: PBMCs from RA patients and one AOSD patient; dose-dependent

Protein sequences, listed by entry. Tags and fused reporters are not part of them. Residues count along the entry.
UniProt Q9NR97, 27-1041 limits assumed: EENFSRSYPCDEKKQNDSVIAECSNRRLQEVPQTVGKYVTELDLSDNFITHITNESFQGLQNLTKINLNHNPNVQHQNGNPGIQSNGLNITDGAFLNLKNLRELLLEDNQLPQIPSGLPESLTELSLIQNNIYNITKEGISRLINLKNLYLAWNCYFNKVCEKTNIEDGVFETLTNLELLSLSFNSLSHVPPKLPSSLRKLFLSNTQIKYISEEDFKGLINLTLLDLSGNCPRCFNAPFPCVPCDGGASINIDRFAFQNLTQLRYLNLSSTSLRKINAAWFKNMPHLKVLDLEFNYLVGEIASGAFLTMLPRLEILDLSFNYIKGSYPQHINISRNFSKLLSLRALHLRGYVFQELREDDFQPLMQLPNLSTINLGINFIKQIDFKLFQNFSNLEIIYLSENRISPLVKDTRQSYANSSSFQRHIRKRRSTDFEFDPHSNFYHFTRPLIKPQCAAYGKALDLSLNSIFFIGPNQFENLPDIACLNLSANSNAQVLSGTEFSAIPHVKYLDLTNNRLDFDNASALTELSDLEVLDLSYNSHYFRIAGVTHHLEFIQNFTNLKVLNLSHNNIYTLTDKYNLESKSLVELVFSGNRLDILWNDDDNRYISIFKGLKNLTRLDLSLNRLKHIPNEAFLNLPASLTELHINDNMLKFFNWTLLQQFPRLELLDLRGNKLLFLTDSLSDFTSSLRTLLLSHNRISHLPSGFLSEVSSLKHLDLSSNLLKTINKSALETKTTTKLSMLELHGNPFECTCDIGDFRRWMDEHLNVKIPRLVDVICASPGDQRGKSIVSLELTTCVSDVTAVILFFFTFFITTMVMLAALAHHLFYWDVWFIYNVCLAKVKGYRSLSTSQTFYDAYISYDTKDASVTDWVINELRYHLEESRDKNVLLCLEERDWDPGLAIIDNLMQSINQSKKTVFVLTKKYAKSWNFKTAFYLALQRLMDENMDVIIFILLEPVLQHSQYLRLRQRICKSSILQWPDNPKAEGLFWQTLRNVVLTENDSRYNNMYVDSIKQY
UniProt Q9NYK1, 27-1049 limits assumed: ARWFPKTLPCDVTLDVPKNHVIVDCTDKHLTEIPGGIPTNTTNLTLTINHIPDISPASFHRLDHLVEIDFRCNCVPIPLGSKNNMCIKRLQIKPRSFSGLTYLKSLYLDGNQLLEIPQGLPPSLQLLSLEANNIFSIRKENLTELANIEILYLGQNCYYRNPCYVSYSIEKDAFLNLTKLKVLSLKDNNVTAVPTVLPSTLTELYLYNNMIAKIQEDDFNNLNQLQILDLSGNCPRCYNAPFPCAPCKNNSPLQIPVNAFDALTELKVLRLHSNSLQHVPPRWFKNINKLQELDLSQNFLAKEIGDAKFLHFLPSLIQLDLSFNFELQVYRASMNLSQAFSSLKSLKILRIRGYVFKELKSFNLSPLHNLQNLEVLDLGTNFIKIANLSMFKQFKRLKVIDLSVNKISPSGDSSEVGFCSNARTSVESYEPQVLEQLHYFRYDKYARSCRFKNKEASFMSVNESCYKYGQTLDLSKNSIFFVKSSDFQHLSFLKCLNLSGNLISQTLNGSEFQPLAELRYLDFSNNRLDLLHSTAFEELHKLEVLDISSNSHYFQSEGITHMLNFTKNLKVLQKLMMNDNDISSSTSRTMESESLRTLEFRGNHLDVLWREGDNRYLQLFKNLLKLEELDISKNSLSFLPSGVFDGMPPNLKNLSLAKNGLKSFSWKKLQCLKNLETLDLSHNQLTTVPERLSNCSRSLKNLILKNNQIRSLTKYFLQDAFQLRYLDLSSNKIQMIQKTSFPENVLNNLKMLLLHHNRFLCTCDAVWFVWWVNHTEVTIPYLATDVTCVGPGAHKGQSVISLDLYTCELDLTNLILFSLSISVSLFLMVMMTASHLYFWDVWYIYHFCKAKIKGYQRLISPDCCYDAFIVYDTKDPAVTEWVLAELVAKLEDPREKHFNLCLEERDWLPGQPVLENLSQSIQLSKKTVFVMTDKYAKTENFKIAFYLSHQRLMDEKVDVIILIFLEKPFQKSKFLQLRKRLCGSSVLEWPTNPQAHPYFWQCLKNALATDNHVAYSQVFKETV

pIC50 [1]: 9.10
Compound: COc1ccc2c(-c3cnc(OCc4ccccc4)c(C)c3)ccnc2c1

Compound: Cc1cccc(-c2ccnc3c(C(N)=O)cnn23)c1
fold stronger inhibitory activity than hit compound 6a [1]: 2 fold
cytotoxicity [2]: negligible cytotoxicity
inhibition of any TLR other than TLR8 [3]: did not show significant inhibition
TLR7 signaling (TLR7-mediated NF-κB activation) [4]: not affected
elevation of TNF-α and IL-8 mRNA levels induced by R848 [5]: completely abolished
pIC50 [6]: 7.05
R848-induced TNF-α secretion of PBMCs [7]: reversed
spontaneous release of TNF-α and IL-1β from synovial membrane cultures [8]: significant inhibitory effects
cytotoxicity in synovial cells [9]: little cytotoxicity
TNF-α level in patient PBMCs [10]: significantly suppressed

pIC50 [1]: 10.00
Compound: COc1ccc2c(-c3ccc(OCCCCO)c(C)c3)ccnc2c1

— patent publication US11466010B2, “Toll-like receptor 8 (TLR8) specific antagonists and methods of making and uses thereof” (The Regents of the University of Colorado, a body corporate, priority 2017, dated 2022)
